Experimental data reported in ChEMBL document CHEMBL1130635, “4-Phenyl-4-oxo-butanoic acid derivatives inhibitors of kynurenine 3-hydroxylase” (Bioorg Med Chem Lett, 1998).

The chains behind the UniProt entries cited, without tags or fusion partners. Where a name states a change or a piece, a line headed by the entry shows the natural chain unless it says otherwise.
UniProt O88867: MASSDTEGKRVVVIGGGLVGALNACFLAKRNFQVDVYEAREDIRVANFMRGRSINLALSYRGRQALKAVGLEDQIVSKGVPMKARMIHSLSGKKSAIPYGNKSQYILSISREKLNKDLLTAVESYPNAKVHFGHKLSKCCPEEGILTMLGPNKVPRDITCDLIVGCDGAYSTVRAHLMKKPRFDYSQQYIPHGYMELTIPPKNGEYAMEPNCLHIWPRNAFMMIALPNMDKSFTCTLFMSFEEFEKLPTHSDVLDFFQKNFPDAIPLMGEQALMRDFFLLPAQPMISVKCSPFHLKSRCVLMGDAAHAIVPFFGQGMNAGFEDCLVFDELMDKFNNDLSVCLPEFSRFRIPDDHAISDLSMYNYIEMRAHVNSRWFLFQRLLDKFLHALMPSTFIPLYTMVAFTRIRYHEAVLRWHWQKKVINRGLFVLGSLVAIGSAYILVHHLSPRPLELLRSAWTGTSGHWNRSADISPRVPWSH

Experiments:
[1] = molecular target: T1, Kynurenine 3-monooxygenase (Rattus norvegicus, UniProt O88867); assay: Inhibition of rat liver KYN 3-OHase.
[2] = molecular target: T1, Kynurenine 3-monooxygenase; assay: Inhibition of rat brain KYN 3-OHase.

| SMILES | IC50 [1] [µM] | IC50 [2] [µM] |
| --- | --- | --- |
| O=C(CC(O)C(=O)O)c1ccc(F)c(F)c1 (stereo not given) | 3 | 1.45 |
| O=C(CC(O)C(=O)O)c1cccc(F)c1 (stereo not given) | 9.1 | 5.6 |
| O=C(CC(O)C(=O)O)c1cccc([N+](=O)[O-])c1 (stereo not given) | 11.5 | 1.95 |
| COC(CC(=O)c1ccc(Cl)c(Cl)c1)C(=O)O (stereo not given) | 6.9 | 1.2 |
| CC(CC(=O)c1ccc(Cl)c(Cl)c1)C(=O)O (stereo not given) | 6.9 | 3.5 |
